The test system of this data set is Caco-2 monolayers. In words: Permeability studies across Caco-2 monolayers in microfluidic device. Particulars: microfluidic day 9 or 10 vs Transwell day 14, without TDM. The method, then:
Buffer^+ was prepared by mixing Hank’s Buffered Saline solution (HBSS; Gibco, Denmark), 0.1% (wt/vol) OVA (ovalbumin; from chicken egg white, Sigma, Denmark) and 10 mM HEPES (HEPES; Sigma, Denmark) at pH 7.4.
The Caco-2 translocation of peptide, [^3H]mannitol or Rh 123 over Caco-2 layers is expressed as the apparent permeability (Papp), given by: Papp=dQ/dt1/AC0 (2) Where dQ/dt is the steady-state flux across the cell layer (pmol/s), A is the surface area (1.12 cm^2 for Transwell, 0.1 cm^2 for microfluidic), and C0 is the initial sample concentration.
(In general: Caco-2 cells form a polarised layer with tight junctions and transporters.)

For the substance “fluorescein isothiocyanate (FITC)-labeled dextran [FD-4]”, the “Papp in microfluidic chip compared to static Transwell cultures” value was “slightly higher (not significant)”.
On to insulin, for which the “Papp in microfluidic chip compared to static Transwell cultures” value is listed as “slightly higher (not significant)”.

For the origin of these results see publication PMC5944968, “A multi-chamber microfluidic intestinal barrier model using Caco-2 cells for drug transport studies” (PLoS ONE, 2018).
